Columns and labels:
[1] = target: T1, GST-DOT1L (Homo sapiens, UniProt Q8TEK3); conditions: ratio of MTase-Glo IC50 values
[2] = target: PRMT8 (Homo sapiens, UniProt Q9NR22)
[3] = target: T1, GST-DOT1L; test: Thermal stability shift assay; type: binding; conditions: 10 μM GST-DOT1L, various concentrations of compound
[4] = target: DNMT1 (Homo sapiens, UniProt P26358)
[5] = system: E2A-HLF cells; conditions: DOT1L-independent negative control line
[6] = system: MLL-AF9 transformed cells; conditions: 3 μM

Protein sequences, listed by entry. Tags and fused reporters are not part of them. Lines headed by an entry give the natural chain unless they say otherwise; changes in a name come on top. Residues count along the entry.
UniProt Q8TEK3, 1-420: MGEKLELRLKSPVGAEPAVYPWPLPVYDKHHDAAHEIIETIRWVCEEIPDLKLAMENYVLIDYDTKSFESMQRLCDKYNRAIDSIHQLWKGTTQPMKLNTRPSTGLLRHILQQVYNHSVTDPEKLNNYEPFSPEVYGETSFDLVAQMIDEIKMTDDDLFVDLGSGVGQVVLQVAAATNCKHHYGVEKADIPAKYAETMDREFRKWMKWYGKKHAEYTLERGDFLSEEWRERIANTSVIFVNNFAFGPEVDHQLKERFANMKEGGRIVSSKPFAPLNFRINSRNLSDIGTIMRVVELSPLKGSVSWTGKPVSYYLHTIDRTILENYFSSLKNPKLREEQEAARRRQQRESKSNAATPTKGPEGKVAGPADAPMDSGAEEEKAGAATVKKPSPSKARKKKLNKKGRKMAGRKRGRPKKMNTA
UniProt Q9NR22, whole entry: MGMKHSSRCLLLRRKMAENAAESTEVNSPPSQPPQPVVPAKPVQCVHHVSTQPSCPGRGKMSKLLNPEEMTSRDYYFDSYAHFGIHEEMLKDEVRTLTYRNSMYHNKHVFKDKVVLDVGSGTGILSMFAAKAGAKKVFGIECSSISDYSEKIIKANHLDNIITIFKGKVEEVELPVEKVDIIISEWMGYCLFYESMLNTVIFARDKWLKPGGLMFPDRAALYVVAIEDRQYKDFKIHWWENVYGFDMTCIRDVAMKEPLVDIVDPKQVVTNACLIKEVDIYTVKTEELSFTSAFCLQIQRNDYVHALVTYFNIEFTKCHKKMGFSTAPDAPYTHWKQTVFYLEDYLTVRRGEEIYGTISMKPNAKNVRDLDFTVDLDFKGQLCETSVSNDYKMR
UniProt P26358: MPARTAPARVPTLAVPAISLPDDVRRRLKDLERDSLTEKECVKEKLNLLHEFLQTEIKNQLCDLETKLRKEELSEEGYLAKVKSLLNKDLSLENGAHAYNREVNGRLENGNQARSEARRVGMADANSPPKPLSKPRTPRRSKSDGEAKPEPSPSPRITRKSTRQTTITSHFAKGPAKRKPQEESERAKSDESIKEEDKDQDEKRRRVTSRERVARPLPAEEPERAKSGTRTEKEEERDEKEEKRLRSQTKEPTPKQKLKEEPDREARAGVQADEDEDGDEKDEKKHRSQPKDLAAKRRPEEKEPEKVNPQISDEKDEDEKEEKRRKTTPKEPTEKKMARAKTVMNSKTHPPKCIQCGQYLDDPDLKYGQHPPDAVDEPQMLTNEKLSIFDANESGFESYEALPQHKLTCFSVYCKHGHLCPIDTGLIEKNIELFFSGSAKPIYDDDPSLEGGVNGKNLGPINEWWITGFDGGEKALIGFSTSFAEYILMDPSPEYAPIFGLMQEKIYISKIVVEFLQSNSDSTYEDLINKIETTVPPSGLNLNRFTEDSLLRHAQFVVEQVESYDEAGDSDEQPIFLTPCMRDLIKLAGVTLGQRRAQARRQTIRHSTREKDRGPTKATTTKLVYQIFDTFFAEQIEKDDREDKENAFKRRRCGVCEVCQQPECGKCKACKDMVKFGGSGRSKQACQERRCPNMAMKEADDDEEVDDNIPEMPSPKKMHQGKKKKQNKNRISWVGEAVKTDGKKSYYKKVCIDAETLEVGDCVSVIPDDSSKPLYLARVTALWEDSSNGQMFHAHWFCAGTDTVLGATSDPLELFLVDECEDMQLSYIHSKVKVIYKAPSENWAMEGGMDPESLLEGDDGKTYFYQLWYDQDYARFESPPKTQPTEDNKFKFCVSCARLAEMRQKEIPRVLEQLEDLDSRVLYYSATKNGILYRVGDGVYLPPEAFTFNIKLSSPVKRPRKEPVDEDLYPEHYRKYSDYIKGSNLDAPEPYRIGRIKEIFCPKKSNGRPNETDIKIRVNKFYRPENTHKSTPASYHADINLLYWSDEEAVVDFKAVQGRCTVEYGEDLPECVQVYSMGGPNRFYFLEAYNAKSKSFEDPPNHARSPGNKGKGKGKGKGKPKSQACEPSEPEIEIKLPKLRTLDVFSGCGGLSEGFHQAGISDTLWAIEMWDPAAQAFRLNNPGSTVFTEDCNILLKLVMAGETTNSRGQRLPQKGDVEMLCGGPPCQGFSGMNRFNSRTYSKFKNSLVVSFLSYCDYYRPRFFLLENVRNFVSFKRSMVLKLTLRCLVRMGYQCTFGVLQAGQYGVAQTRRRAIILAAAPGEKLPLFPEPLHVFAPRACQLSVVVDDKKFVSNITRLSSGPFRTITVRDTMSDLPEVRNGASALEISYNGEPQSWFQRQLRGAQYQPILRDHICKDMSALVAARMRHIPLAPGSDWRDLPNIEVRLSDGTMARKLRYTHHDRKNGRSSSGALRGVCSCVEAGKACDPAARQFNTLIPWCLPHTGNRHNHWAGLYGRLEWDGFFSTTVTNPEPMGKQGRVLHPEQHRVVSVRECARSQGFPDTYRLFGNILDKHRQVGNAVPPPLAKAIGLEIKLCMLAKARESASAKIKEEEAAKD

CC(C)(C)c1ccc(NC(=O)c2ncn(CC(=O)NCCn3ccc4c(N)ncnc43)n2)cc1 [Compound 25, 1-(2-((2-(4-amino-7H-pyrrolo[2,3-d]pyrimidin-7-yl)ethyl)amino)-2-oxoethyl)-N-(4-(tert-butyl)phenyl)-1H-1,2,4-triazole-3-carboxamide]
fold improvement of DOT1L inhibition in comparison with hit 9 [1]: 40 fold | selectivity (SI) for DOT1L (IC50 MT/IC50 DOT1L), PRMT8 [2]: > 250 | thermal shift of DOT1L (direct binding) [3]: dose-dependent stabilization of DOT1L | selectivity (SI) for DOT1L (IC50 MT/IC50 DOT1L), DNMT1 [4]: ca. 250

CC(C)N(CCCNC(=O)Nc1ccc(C(C)(C)C)cc1)C[C@H]1O[C@@H](n2ccc3c(N)ncnc32)[C@H](O)[C@@H]1O [EPZ004777, reference compound]
effect on the growth of E2A-HLF cells [5]: doesn’t show any effect on the growth | cell differentiation, Wright-Giemsa stain [6]: inducing cell differentiation
